Like-named read-outs stand apart in the source and are kept apart here.

The conditions of series [1]: NHP Choroid/RPE, 600 ug, cited from earlier work.
For series [2] the following is noted: Rabbit Choroid, 600 ug, cited from earlier work.
In series [3] the test system is synthetic melanin. The series is described as follows: in vitro.

As usually defined, the fraction unbound is free concentration divided by total concentration. Turning to `CNC(=O)c1ccccc1Sc1ccc2c(/C=C/c3ccccn3)n[nH]c2c1` [Axitinib], the “Concentration, choroid/RPE” value in series [1] (90 days post-treatment) is 960 µg/g; in series [1] (180 days post-treatment), 4000 µg/g; in series [1] (270 days post-treatment) it was 3040 µg/g. The “Concentration, choroid” value was 200 µg/g in series [2] (14 days post-treatment), 650 µg/g in series [2] (28 days post-treatment), 1300 µg/g in series [2] (60 days post-treatment) and 5000 µg/g in series [2] (84 days post-treatment). The compound further showed a fraction unbound at 1 h in series [3] of 0.959.

Values taken from publication PMC11149885 (PLOS ONE, 2024).
